Measured values reported in patent publication US8507529B2, “Methods of using a nitroxide antioxidant in cosmetic and dermatological compositions” (Jarrow Formulas, Inc., priority 2005, dated 2013).

Test: Peroxidation of multilamellar phosphatidylcholine (PC) liposomes induced by UVA, TBA assay (TBARS)
Settings: 100 μM compound, 3.5 mM PC liposomes, 275 kJ/m^2 UVA, TBARS at 535 nm, FIG. 4

SMILES: CC1(C)CC(O)CC(C)(C)N1[O] [TEMPOL, 4-hydroxy-2,2,6,6,-tetramethyl-piperidine-1-oxyl]
- inhibition of UVA-induced lipid peroxidation: ~60%
